Molecular target: 5-HT2A receptor (Homo sapiens, UniProt P28223)
Assay: R-SAT functional assay, constitutively active wild type 5-HT2A receptor in NIH 3T3 cells
Settings: 5-HT2A Receptor Negative Log EC50 (inverse agonism), Table 3; 50 ng/well receptor DNA

Chains of the proteins cited; added tags and fusions are not shown.
UniProt P28223, whole entry: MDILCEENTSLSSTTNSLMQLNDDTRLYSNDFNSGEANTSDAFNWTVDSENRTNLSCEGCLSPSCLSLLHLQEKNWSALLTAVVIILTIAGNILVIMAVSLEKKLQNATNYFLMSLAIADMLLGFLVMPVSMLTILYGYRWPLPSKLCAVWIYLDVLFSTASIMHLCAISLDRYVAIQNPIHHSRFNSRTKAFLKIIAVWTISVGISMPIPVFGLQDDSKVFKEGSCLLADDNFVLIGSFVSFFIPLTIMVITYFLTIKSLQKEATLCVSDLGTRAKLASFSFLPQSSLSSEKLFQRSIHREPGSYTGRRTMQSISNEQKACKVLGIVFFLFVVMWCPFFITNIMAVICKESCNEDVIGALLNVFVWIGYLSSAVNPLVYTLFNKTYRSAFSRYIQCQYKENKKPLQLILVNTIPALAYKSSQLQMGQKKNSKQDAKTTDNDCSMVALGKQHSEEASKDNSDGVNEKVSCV

EC50: 110 nM
Compound: CC1CCN(CCCC(=O)c2ccc(F)cc2)CC1 [Melperone]
